Rows were chosen to be rich in hits. Some 1.8% of all compounds tested hit in one or more screens of this group.
AF4-AF9 inh – inhibitors of human MLL-AF4/AF9 interaction. inhibition, % at 10 µM. AlphaScreen, biotin-AF4 peptide binding to FLAG-AF9. actives 0.47% (n = 350,000);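 active means every replicate reaching a set inhibition limit, whatever the replicate mean, cut at about 25% in these data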;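 further: 0% = plate neutral control median and 100% = total signal loss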
SIRT5 inh – inhibitors of human sirtuin-5 desuccinylase. Purified SirT5, succinyl-peptide AMC, trypsin-coupled fluorescence. inhibition, % at 15 µM. actives 1.1% (n = 330,000); in the data active means inhibition above about 15%
RAD52 anneal inh – blocks human RAD52 DNA annealing | recombinant RAD52 DNA annealing, FRET fluorescence | inhibition, % at 18.7 µM | actives 0.46% (n = 360,000);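 active means every replicate showing at least 50% inhibition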
UUG fidelity – yeast start codon fidelity modulation; AID 602363; activity score, % at 18.7 µM; S. cerevisiae UUG-firefly luciferase reporter, luminescence/redox ratio; 0.13% of 350,000 active;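 active means replicate mean at a twofold rise or more, about +100% in these data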;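 further: firefly luciferase made from a UUG start codon reports start codon fidelity; reporter light over untreated wells divided by growth signal over untreated wells; some hits fall short of that in this replicate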
RAD54 branch – inhibitors of human RAD54 branch migration; AID 602329; actives 0.14% (n = 360,000); Q92698; RAD54 Holliday junction branch migration, FAM/BHQ fluorescence; inhibition, % at 10.4 µM;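 active means mean normalized replicate activity at least 40 and at least half of replicates scoring 40 or more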;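 further: 0% = median of neutral control wells and 100% = median of positive control wells; inhibitors cause a drop in the FAM fluorescence signal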
E-sel inducer – induces E-selectin expression in human endothelial cells. HUVEC E-selectin immunofluorescence imaging; normalized: neutral wells 0, TNF-alpha wells 100. activation, % at 7.58 µM. actives 0.37% (n = 260,000);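 active means mean E-selectin-positive cell signal at least 10% of the positive control, reached in at least 60% of replicates, without over 20% cell loss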
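Test system: HUVEC | Signal: Immunofluorescence imaging | Read-out: Percent E-selectin-positive cells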
An asterisk follows results filed as active; . = no result given.

Sequence of screens: AF4-AF9 inh | SIRT5 inh | RAD52 anneal inh | UUG fidelity | RAD54 branch | E-sel inducer
1) Cc1ccc(S(=O)(=O)Nc2ccc3c(c2)C(=O)N([C@H](C)CO)C[C@H](C)[C@H](CN(C)S(=O)(=O)c2ccc(F)cc2)OCCCC[C@H](C)O3)cc1
    -2 | 17* | -2 | 8 | 0 | 0
2) Cc1ccc(S(=O)(=O)N(C)C[C@H]2OCCCC[C@H](C)Oc3ccc(NS(=O)(=O)c4ccc(F)cc4)cc3C(=O)N([C@H](C)CO)C[C@H]2C)cc1
    -1 | 25* | -13 | -11 | 6 | 0
3) Cc1ccc(S(=O)(=O)Nc2ccc3c(c2)C(=O)N([C@H](C)CO)C[C@H](C)[C@@H](CN(C)S(=O)(=O)c2ccc(F)cc2)OCCCC[C@@H](C)O3)cc1
    3 | 9 | 0 | 22 | 5 | 0
4) Cc1ccc(S(=O)(=O)N(C)C[C@@H]2OCCCC[C@@H](C)Oc3ccc(NS(=O)(=O)c4ccc(F)cc4)cc3C(=O)N([C@@H](C)CO)C[C@H]2C)cc1
    0 | 20* | 15 | -8 | -26 | 0
5) Cc1ccc(S(=O)(=O)Nc2ccc3c(c2)C(=O)N([C@@H](C)CO)C[C@H](C)[C@@H](CN(C)S(=O)(=O)c2ccc(F)cc2)OCCCC[C@@H](C)O3)cc1
    -2 | 15 | 3 | . | . | 0
6) Cc1ccc(S(=O)(=O)N(C)C[C@H]2OCCCC[C@H](C)Oc3ccc(NS(=O)(=O)c4ccc(F)cc4)cc3C(=O)N([C@@H](C)CO)C[C@H]2C)cc1
    -3 | 25* | 23 | 13 | 5 | 0
7) Cc1ccc(S(=O)(=O)N[C@@H]2CC[C@@H](CC(=O)NCCCN(C)C)O[C@@H]2CO)cc1
    -10 | -1 | 13 | . | 0 | 1
8) Cc1ccc(S(=O)(=O)N(C)C[C@@H]2OCCCC[C@@H](C)Oc3ccc(NS(=O)(=O)c4ccc(F)cc4)cc3C(=O)N([C@H](C)CO)C[C@@H]2C)cc1
    -1 | 4 | 21 | 9 | 9 | 0
9) Cc1ccc(S(=O)(=O)N(C)C[C@H]2OCCCC[C@@H](C)Oc3ccc(NS(=O)(=O)c4ccc(F)cc4)cc3C(=O)N([C@@H](C)CO)C[C@H]2C)cc1
    1 | 22* | 19 | -10 | -6 | 0
10) Cc1ccc(S(=O)(=O)N(C)C[C@@H]2OCCCC[C@H](C)Oc3ccc(NS(=O)(=O)c4ccc(F)cc4)cc3C(=O)N([C@@H](C)CO)C[C@@H]2C)cc1
    1 | 20* | 11 | -8 | -1 | 0

Sequence of screens: AF4-AF9 inh | SIRT5 inh | RAD52 anneal inh | UUG fidelity | RAD54 branch | E-sel inducer
11) Cc1ccc(S(=O)(=O)N(C)C[C@@H]2OCCCC[C@H](C)Oc3ccc(NS(=O)(=O)c4ccc(F)cc4)cc3C(=O)N([C@H](C)CO)C[C@@H]2C)cc1
    0 | 26* | 22 | -2 | 8 | 0
12) C[C@H]1CN([C@@H](C)CO)C(=O)c2cccc(NS(=O)(=O)c3ccc(Cl)cc3)c2O[C@H]1CN(C)S(=O)(=O)c1cccs1
    3 | 2 | -18 | -10 | -5 | -2
13) O=c1[nH]c(Cc2ccc(F)cc2)nc2scc(-c3ccc(F)cc3)c12
    -5 | 21* | -13 | 0 | 7 | 3
14) COc1ccccc1/C=C/c1nc(S(=O)(=O)c2ccccc2)c(N2CCC(C(N)=O)CC2)o1
    -2 | 17* | -7 | 7 | -4 | .
15) CCc1cc(C(=O)Nc2nc(-c3ccccn3)cs2)sc1C
    1 | 1 | -3 | -26 | 2 | 29*
16) Cc1ccc(C(=O)Nc2nc(-c3ccccn3)cs2)o1
    -3 | -5 | -29 | . | . | .
17) COC(=O)c1cn(C(=O)c2ccccc2Cl)c2ccccc12
    -11 | 26* | -10 | . | . | .
18) COC(=O)c1cn(C(=O)OC)c2ccccc12
    . | . | . | -21 | -3 | .
19) COc1ccc(CNC(=O)C[C@@H]2C[C@@H]3c4cc(NC(=O)NC5CCCC5)ccc4O[C@@H]3[C@H](CO)O2)cc1
    -1 | 0 | -7 | 5 | 1 | 0
20) S=c1nc2[nH]c3ccccc3c2n[nH]1
    -8 | 0 | -7 | -7 | -9 | 1

Of the compounds above, these have a Cl atom.
Sequence of screens: AF4-AF9 inh | SIRT5 inh | RAD52 anneal inh | UUG fidelity | RAD54 branch | E-sel inducer
12) C[C@H]1CN([C@@H](C)CO)C(=O)c2cccc(NS(=O)(=O)c3ccc(Cl)cc3)c2O[C@H]1CN(C)S(=O)(=O)c1cccs1
    3 | 2 | -18 | -10 | -5 | -2
17) COC(=O)c1cn(C(=O)c2ccccc2Cl)c2ccccc12
    -11 | 26* | -10 | . | . | .

The listing picks up, repeating the 2 entries before the break.
Sequence of screens: AF4-AF9 inh | SIRT5 inh | RAD52 anneal inh | UUG fidelity | RAD54 branch | E-sel inducer
19) COc1ccc(CNC(=O)C[C@@H]2C[C@@H]3c4cc(NC(=O)NC5CCCC5)ccc4O[C@@H]3[C@H](CO)O2)cc1
    -1 | 0 | -7 | 5 | 1 | 0
20) S=c1nc2[nH]c3ccccc3c2n[nH]1
    -8 | 0 | -7 | -7 | -9 | 1
21) c1ccc2c(c1)[nH]c1nc3nncn3nc12
    -15 | 18* | -4 | -10 | -5 | .
22) CC(C)[C@@H](C(=O)NC1CCN(Cc2ccccc2)CC1)N1C(=O)N2CCc3c([nH]c4ccccc34)[C@@]2(C)C1=O
    27* | . | -22 | -10 | 2 | .
23) O=C(CC1CC1)N1CC2(C1)[C@@H](c1ccccc1)[C@@H](CO)N2Cc1cccc(F)c1
    0 | 19* | -7 | . | . | 0
24) O=C(C1CCC1)N1CC2(C1)[C@H](c1ccccc1)[C@H](CO)N2Cc1ccc(Cl)cc1
    5 | 0 | -7 | . | . | 0
25) CCS(=O)(=O)N1CC2(C1)[C@@H](c1ccccc1)[C@H](CO)N2Cc1ccc(F)cc1
    0 | 16* | -14 | . | . | 0
26) O=C(C1CCOCC1)N1CC2(C1)[C@@H](c1ccccc1)[C@@H](CO)N2CCC(F)(F)F
    -2 | 26* | -8 | . | . | 0
27) O=C(C1CCC1)N1CC2(C1)[C@@H](c1ccccc1)[C@@H](CO)N2Cc1ccc(Cl)cc1
    4 | -3 | 67* | . | . | 0
28) C[C@@H]1CN([C@H](C)CO)C(=O)c2cc(NC(=O)NC3CCCCC3)ccc2O[C@@H]1CN(C)S(=O)(=O)c1ccc(F)cc1
    -3 | 3 | -13 | -2 | 8 | 3
29) CCC(=O)N1CC2(C1)[C@H](c1ccccc1)[C@H](CO)N2Cc1ccccc1OC
    -1 | 23* | -10 | . | . | 0
30) COCC(=O)N1CC2(C1)[C@H](c1ccccc1)[C@@H](CO)N2Cc1ccccc1OC
    0 | 2 | 4 | . | . | 0

Sequence of screens: AF4-AF9 inh | SIRT5 inh | RAD52 anneal inh | UUG fidelity | RAD54 branch | E-sel inducer
31) COc1cccc(CN2[C@H](CO)[C@@H](c3ccccc3)C23CN(C(=O)C2CCC2)C3)c1
    -1 | 24* | -3 | . | . | 0
32) CCCNC(=O)N1[C@H](CO)[C@H](c2ccccc2)C12CN(C(=O)CC1CC1)C2
    0 | 7 | -12 | . | . | 0
33) O=C(c1ccncc1)N1CC2(C1)[C@@H](c1ccccc1)[C@@H](CO)N2CC1CCCC1
    1 | 18* | -3 | . | . | 0
34) COc1cccc(CN2[C@H](CO)[C@@H](c3ccccc3)C23CN(C(=O)C2CCCC2)C3)c1
    -2 | -2 | 8 | . | . | .
35) CCCNC(=O)N1[C@@H](CO)[C@H](c2ccccc2)C12CN(C(=O)CC1CC1)C2
    0 | 38* | -12 | . | . | 0
36) O=C(C1CC1)N1CC2(C1)[C@H](c1ccccc1)[C@H](CO)N2Cc1cncnc1
    -1 | -4 | -13 | . | . | 0
37) Cc1noc(C)c1S(=O)(=O)Nc1cccc2c1O[C@H](CN(C)Cc1ccncc1)[C@H](C)CN([C@@H](C)CO)C2=O
    -4 | -4 | -49 | -1 | -3 | 8
38) C[C@@H]1CN([C@@H](C)CO)C(=O)Cc2cc(NC(=O)CCCCCC(=O)Nc3ccccc3N)ccc2O[C@@H]1CN(C)S(=O)(=O)c1ccc(F)cc1
    1 | -3 | -14 | 1 | -4 | 0

Screening results deposited in PubChem by Broad Institute.
